Legend:
Format in all cases: biochemical
CDK4/CycD3 = CDK4/CycD3 (Homo sapiens (Human), UniProt P11802); assay: CDK4/CycD3 kinase Mobility Shift Assay; conditions: CDK4/CycD3 10 nM, ATP Km 221 μM, 180 min, 28° C.
Experimental: (§1) 1. CDK2, CDK4 and CDK6 Kinase Assays:
(§2) CDK2/CycA2 and CDK6/cycD3 were assayed under buffer conditions in the presence of 50 mM HEPES (pH 7.5), 10 mM MgCl2, 0.0015% Brij-35, and 2 mM dithiothreitol, CDK4/CycD3 with buffer condition of 20 mM HEPES (pH 7.5), 10 mM MgCl2, 0.01% Triton X-100, and 2 mM dithiothreitol. Prepare compounds to 50× of the final desired highest inhibitor concentration by 100% DMSO and serial dilution in 3-fold for total of 10 concentrations. […] After assay for 60 min, 180 min, 60 min respectively at 28° C., reactions were terminated with stop solution (50 mM EDTA, 0.015% Brij-35, 0.2% Coating Reagent #3 and 100 mM HEPES (pH 7.5)). Collect conversion on Caliper EZ Reader. IC50 values were calculated by fitting the dose-response curves with Xlfit excel add-in version 4.3.1.

Sequences of proteins named here, by UniProt entry; tags and fusion partners are left off.
UniProt P11802, whole entry, species assumed: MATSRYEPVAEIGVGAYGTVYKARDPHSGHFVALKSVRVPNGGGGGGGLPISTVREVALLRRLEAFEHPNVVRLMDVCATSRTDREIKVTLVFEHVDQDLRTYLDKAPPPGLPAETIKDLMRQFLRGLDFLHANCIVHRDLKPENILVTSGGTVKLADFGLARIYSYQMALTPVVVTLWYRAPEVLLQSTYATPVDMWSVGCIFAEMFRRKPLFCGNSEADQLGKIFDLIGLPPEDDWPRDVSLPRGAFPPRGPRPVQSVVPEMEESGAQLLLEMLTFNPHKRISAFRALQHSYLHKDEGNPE
UniProt Q00534, whole entry, species assumed: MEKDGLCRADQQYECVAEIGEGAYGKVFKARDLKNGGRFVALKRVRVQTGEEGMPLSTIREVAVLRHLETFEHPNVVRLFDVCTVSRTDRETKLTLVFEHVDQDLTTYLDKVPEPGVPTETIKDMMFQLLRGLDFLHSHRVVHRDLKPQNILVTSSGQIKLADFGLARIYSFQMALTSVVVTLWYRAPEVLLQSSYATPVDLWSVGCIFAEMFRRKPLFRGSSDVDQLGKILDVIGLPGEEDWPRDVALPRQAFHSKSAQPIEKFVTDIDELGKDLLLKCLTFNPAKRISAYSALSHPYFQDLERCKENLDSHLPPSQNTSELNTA

CDK6/cycD3 = CDK6/cycD3 (Homo sapiens (Human), UniProt Q00534); assay: CDK6/cycD3 kinase Mobility Shift Assay; conditions: CDK6/cycD3 15 nM, ATP Km 800 μM, 60 min, 28° C.
Experimental: as §1, §2

CDK2/CycA2 = CDK2/CycA2 (Homo sapiens (Human), UniProt P24941); assay: CDK2/CycA2 kinase Mobility Shift Assay; conditions: CDK2/CycA2 12 nM, ATP Km 39 μM, 60 min, 28° C.
Experimental: as §1, §2

- IC50 (CDK4/CycD3): < 10 nM
- IC50 (CDK6/cycD3): < 25 nM
- IC50 (CDK2/CycA2): > 5 µM
Structure (SMILES): CC(=O)c1c(C)c2cnc(Nc3ccc(N4CCC5(CCNCC5)CC4)cn3)nc2n(C2CCCC2)c1=O [Compound 5, 2-(5-(3,9-diazaspiro[5.5]undecan-3-yl)pyridin-2-ylamino)-6-acetyl-8-cyclopentyl-5-methylpyrido[2,3-d]pyrimidin-7(8H)-one]

Source: US11225492B2, “Heterocycles useful as anti-cancer agents” (Hangzhou Innogate Pharma Co., Ltd., priority 2015, dated 2022)
